{"source": "patent US7420037B2", "about": "“Heat shock protein-based vaccines and immunotherapies” (Antigenics Inc., priority 2003, dated 2008)", "target": "recombinant human or murine heat shock protein 70 (hsp70)", "type": "binding", "settings": "read-out: Epitope alone: Affinity for hsp70", "data": [{"sequence": "SLLMWITQV [reference compound]", "values": [{"measurement": "Kd", "value": 114, "unit": "µM"}]}]}
